# The list shows a part of the results.
# T1: LIN28A (human?, UniProt Q9H9Z2 1-209)
# T1 sequence: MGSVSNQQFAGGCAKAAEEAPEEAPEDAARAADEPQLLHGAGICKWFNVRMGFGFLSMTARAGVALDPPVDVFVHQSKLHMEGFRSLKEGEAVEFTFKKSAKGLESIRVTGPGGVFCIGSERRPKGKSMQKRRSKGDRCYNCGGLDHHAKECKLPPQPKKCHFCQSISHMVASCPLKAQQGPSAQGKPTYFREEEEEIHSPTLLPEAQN
# T2: CIRBP (Homo sapiens, UniProt Q14011 1-172)
# T2 sequence: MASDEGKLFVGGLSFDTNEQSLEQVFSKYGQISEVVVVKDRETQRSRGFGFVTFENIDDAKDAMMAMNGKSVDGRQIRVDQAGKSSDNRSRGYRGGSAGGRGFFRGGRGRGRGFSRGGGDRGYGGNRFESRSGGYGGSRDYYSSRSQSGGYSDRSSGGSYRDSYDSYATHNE
# T3: DHX36 (Homo sapiens, UniProt Q9H2U1 1-1008)
# T3 sequence: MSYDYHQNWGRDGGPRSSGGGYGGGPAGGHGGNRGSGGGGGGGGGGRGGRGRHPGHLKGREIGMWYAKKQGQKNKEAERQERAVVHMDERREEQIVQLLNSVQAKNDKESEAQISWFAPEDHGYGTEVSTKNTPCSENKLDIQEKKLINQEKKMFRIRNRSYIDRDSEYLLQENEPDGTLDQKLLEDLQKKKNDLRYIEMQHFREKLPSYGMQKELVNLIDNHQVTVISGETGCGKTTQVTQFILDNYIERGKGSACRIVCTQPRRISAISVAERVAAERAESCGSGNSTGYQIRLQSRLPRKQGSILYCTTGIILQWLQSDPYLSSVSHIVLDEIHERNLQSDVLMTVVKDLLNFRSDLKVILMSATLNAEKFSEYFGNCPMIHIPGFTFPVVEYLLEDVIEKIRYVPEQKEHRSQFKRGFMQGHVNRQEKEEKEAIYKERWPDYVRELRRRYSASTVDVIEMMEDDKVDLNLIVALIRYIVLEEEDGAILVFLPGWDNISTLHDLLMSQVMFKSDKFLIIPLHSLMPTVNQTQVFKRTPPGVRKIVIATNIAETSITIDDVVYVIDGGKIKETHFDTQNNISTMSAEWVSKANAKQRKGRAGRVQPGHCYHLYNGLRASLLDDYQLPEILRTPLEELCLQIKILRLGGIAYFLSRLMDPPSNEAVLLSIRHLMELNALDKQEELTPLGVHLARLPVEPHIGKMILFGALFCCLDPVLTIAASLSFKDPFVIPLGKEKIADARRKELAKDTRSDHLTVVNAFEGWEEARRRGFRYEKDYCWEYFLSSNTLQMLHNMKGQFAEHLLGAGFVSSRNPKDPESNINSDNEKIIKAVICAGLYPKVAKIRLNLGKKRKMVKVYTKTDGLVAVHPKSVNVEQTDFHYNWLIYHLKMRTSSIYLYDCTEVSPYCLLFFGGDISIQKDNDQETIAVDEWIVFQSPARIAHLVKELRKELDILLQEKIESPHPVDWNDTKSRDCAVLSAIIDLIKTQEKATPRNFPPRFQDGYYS
# B1: hsa-mir-4325 (structured_RNA)
# RNA: GGGAAUACUGUGAACUGGAUUGAGCUUGGGUGUACGAAGUUUCAGCGUGAGAGAUGCUUCUAGAUCCAGGAGGCAGACCUCAAGCUGAAGCUUCGUGCAC
# B2: NEAT1_ParasoR_ID26 (structured_RNA)
# RNA: GGGAACACAGGGCUGCCAGAACAUAUCCGGUGUACGAAGUUUCAGCUGCAGCAUAUAACAGUACUGCGGCUGAAGCUUCGUGCAC
# B3: hsa-mir-301b (structured_RNA)
# RNA: GGGAGAACUACUCGAAUCGGAUGUCAACGGUGUACGAAGUUUCAGCACUACUGUGCUCUGAGAAGCAGUGCUGAAGCUUCGUGCAC
# B4: hsa-let-7a-3 (structured_RNA)
# RNA: GGGAUCGACAAUGCGUUGCACACGUUGCGGUGUACGAAGUUUCAGCAUAGUUUGGGGCUCUGCCCUGCUAUGGGAUAACUAUGCUGAAGCUUCGUGCAC
# B5: hsa-mir-4265 (structured_RNA)
# RNA: GGGAAAUCGGCUAAGGUGAUAUCCAACCGGUGUACGAAGUUUCAGCACACCUGUAAAGAAUUGGUCAGCCUGGGGACUGGUGAUCUCUGCAGCUGUGCUGAAGCUUCGUGCAC
# B6: hsa-mir-378f (structured_RNA)
# RNA: GGGAGGUUUGCAGUAAACUAACGAGGACGGUGUACGAAGUUUCAGCCAGGCUGCUAAACAACAGAACGAGCACUGGCUGAAGCUUCGUGCAC
# B7: hsa-mir-4537 (structured_RNA)
# RNA: GGGAAAGUAUACUCCGUGCGUUCCCGUUGGUGUACGAAGUUUCAGCGCUGGGCUGAGCUAACCAGGGCUGGGCUGAGCGCUGAAGCUUCGUGCAC
# B8: hsa-mir-4655 (structured_RNA)
# RNA: GGGACAUGGAAGGUCGAAUAAUACCGGCGGUGUACGAAGUUUCAGCGGGUCGUGGGAAAGUGUUGACCCGCUGAAGCUUCGUGCAC
# B9: hsa-mir-609 (structured_RNA)
# RNA: GGGAUCCGAGUAGUGCAGCUACCUGCAGGGUGUACGAAGUUUCAGCCUCUGGUCUAUAAUGGGUUAAAUAGUAGAGGCUGAAGCUUCGUGCAC
# B10: hsa-mir-3180-5 (structured_RNA)
# RNA: GGGACUCAUCCAGCAAUGUCACGUUAGGGGUGUACGAAGUUUCAGCGGAGGCCCCGCCCUGCUGCCGACCCUGUGGAGCGGAGGGUGAAGCCUCCGCUGAAGCUUCGUGCAC
# B11: hsa-mir-6762 (structured_RNA)
# RNA: GGGAACAAAAGACUGCCGAUGGGACCACGGUGUACGAAGUUUCAGCGCCUGUGUAGACGGGGACCUGCCCUGCAUGGGCACCCCCUCACUGGCGCUGAAGCUUCGUGCAC
# Biological target: U1A (Homo sapiens, UniProt P09012)
# Assay: FOREST: bead pull-down of RNA structure library v1, barcode microarray; U1A/LIN28A: 20 mM HEPES pH 7.5, 80 mM KCl, 20 mM NaCl, 10% glycerol, 2 mM DTT, 0.1 ug/uL BSA, 4 C; BG4/CIRBP/DHX36: 10 mM Tris-HCl pH 7.5, 100 mM KCl (or LiCl),; high values mean tight binding
row,Binder,binding signal [z-score]
1,B1,0.524
2,B2,0.525
3,B3,0.52
4,B4,0.531
5,B5,2.13
6,B6,0.52
7,B7,0.524
8,B8,0.525
9,B9,0.524
10,B10,0.527
11,B11,0.519

# Biological target: T1, LIN28A
# Assay: as above
row,Binder,binding signal [z-score]
1,B1,0.117
2,B2,1.21
3,B3,-0.0969
4,B4,0.158
5,B5,0.87
6,B6,0.747
7,B7,-2
8,B8,2.45
9,B9,1.84
10,B10,-0.497
11,B11,-0.819

# Biological target: T2, CIRBP
# Assay: as above
row,Binder,binding signal [z-score]
1,B1,0.038
2,B2,2.02
3,B3,0.264
4,B4,-0.404
5,B5,0.373
6,B6,1.12
7,B7,-0.941
8,B8,-0.695
9,B9,-1.12
10,B10,-1.42
11,B11,-0.208

# Biological target: T3, DHX36
# Assay: as above
row,Binder,binding signal [z-score]
1,B1,0.0492
2,B2,-0.189
3,B3,0.375
4,B4,-0.313
5,B5,-0.508
6,B6,1.07
7,B7,-0.933
8,B8,0.354
9,B9,0.274
10,B10,0.0464
11,B11,-0.384
